The source of these data is ChEMBL document CHEMBL3785033, “Disrupting Acetyl-Lysine Recognition: Progress in the Development of Bromodomain Inhibitors” (J Med Chem, 2016).

The species entered for the assay is Homo sapiens. The assay can be described thus: Selectivity ratio of Kd for BRD9 (unknown origin) to Kd for human BRPF1B (unknown origin).

As to `COc1cc(C#N)ccc1S(=O)(=O)Nc1ccc2c(c1)cc(C)c(=O)n2C`, the Ratio is 32.
